Sequences of proteins named here, by UniProt entry; tags and fusion partners are left off.
UniProt P00533, whole entry: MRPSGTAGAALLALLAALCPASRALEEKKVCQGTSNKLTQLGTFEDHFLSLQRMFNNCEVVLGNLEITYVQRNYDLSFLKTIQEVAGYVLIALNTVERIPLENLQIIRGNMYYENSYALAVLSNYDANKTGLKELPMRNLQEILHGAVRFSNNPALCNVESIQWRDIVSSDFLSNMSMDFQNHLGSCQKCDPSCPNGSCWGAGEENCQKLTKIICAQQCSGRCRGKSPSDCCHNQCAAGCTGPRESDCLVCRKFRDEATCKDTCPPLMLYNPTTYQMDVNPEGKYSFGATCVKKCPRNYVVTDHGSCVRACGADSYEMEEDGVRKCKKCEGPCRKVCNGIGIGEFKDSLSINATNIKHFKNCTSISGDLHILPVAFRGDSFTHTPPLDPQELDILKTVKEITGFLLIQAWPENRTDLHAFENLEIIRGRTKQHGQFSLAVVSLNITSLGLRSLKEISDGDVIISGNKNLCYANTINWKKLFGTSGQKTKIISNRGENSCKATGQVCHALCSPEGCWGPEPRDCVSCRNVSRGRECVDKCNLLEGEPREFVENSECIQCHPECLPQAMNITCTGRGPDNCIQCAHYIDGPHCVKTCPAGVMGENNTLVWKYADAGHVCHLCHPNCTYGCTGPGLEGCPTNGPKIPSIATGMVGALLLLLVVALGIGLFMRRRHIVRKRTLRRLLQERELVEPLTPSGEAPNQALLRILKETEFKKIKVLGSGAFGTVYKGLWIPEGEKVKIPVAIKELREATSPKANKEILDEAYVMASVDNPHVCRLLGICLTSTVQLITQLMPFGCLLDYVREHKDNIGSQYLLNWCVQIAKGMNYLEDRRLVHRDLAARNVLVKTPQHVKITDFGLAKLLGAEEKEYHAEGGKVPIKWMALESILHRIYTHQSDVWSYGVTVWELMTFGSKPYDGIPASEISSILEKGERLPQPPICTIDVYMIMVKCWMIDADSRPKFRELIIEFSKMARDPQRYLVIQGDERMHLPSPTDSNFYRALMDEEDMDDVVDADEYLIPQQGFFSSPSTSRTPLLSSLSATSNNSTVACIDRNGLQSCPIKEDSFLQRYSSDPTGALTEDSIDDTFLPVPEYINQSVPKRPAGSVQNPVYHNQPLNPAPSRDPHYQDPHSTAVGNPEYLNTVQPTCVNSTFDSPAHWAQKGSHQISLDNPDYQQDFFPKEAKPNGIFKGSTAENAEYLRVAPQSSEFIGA

According to ChEMBL document CHEMBL1129839, “The preparation and sar of 4-(anilino), 4-(phenoxy), and 4-(thiophenoxy)-quinazolines: Inhibitors of p56lck and EGF-R tyrosine kinase activity” (Bioorg Med Chem Lett, 1997):

Biological target: Epidermal growth factor receptor (Homo sapiens, UniProt P00533)

pIC50 | Structure (SMILES)
7.60 | COc1cc2ncnc(Nc3cccc(F)c3)c2cc1OC
7.52 | COc1cc2ncnc(Nc3cccc(Cl)c3)c2cc1OC

pIC50: −log10 of the molar value.
